From patent publication US4717662A (priority 1985, dated 1988)

Sequences of proteins named here, by UniProt entry; tags and fusion partners are left off. Residues count along the entry.
UniProt P06278, 30-512: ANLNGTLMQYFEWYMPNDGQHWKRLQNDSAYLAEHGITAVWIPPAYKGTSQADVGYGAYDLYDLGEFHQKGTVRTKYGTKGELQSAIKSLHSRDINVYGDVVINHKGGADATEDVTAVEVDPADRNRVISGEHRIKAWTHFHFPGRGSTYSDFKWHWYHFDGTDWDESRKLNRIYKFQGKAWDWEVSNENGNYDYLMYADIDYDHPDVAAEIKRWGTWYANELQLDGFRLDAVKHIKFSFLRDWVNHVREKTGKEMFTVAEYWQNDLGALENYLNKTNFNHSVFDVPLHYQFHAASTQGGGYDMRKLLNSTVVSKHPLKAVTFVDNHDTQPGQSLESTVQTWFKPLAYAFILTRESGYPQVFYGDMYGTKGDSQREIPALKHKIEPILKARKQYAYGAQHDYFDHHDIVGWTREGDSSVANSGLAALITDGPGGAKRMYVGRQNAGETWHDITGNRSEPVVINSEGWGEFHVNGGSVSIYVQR

Target: alpha-amylase (Bacillus licheniformis, UniProt P06278)
Conditions: pH 5.8; for relative stabilizing effect in words: 95° C., comparison among acids tested

O=C(O)c1ccccc1 [Benzoic acid, benzoic acid]
(-Δ G°) stabilization free energy, R T ln F (95° C. (T = 368K)): 0.9 K cal/mole | relative stabilizing effect in words: least effective | relative stabilizing effect in words (listed as benzoic acid): least amount of stabilization

Like-named read-outs stand apart in the source and are kept apart here.
